From US20230416677A1, “MEDIUM COMPOSITION FOR DERMAL PAPILLA CELL GROWTH, CONTAINING ROTENONE AND ALBUMIN AS ACTIVE INGREDIENTS” (XCELL THERAPEUTICS INC., priority 2020, published 2023) come the findings set out here.

The test system of the experiment is Human dermal papilla cells (hDPC). The experiment in a line: Passage culture of dermal papilla cells in serum-free medium with different albumin concentrations (density, doubling time, accumulated cell number, viability). The class given is cell-based. Here is the method:
hDPCs were prepared in the same manner as in Example 1. They were treated with different concentrations (0.1, 0.5, 1 g/L) of albumin (Richcore, India) in a serum-free medium containing 1% Antibiotic and Antimycotic Hyclone sv30079.91, and then put in a 25T flask. The cells were inoculated at a concentration of 1.52×10^5/flask. After culturing in a 5% carbon dioxide incubator at 37° C., photographs of the cells were taken before passage to confirm the density of dermal papilla cells according to the concentration of albumin (Richcore).
On the other hand, each time the density of the cells proliferated to 90% or more, the cells were passaged. During the passage, the cells were detached from each flask by the use of TrypLE Express, and then the cells were centrifuged. The supernatant was discarded to leave only the cells in the lower layer. The cells were well resuspended by adding a condition-based medium, and then the cell numbers were measured using NC250™ (Chemometec, Denmark). Using the measured cell number and culture time, the doubling time and accumulated cell number per day were calculated using the following Equation.
A=previous passage, B=current passage
Doubling time=ln(2)×(Δtime between B and A)/ln(count B/count A) [Equation 1]
Accumulated cell number (ACN)=ACN of A×cell count of B/seeding number [Equation 2]
Each time the density of the cells proliferated to 90% or more, the cells were passaged. During the passage, the cells were detached from each flask by the use of TrypLE Express, and then the cells were centrifuged. The supernatant was discarded to leave only the cells in the lower layer. The cells were well resuspended by adding a condition-based medium, and then while progressing the subculture to 10 passages, the cell viability was measured using NC250™ (Chemometec, Denmark) at each passage.

Turning to “albumin: plasma protein (Richcore, India) added to serum-free medium; from human plasma, serum or recombinant”, the “cell density of dermal papilla cells” value (albumin 0.1 g/L versus 1 g/L, serum-free medium, FIG. 2a) is recorded as “higher cell density”. In addition, the doubling time entry (albumin 0.1 g/L versus 1 g/L, serum-free medium, FIG. 2b) is listed as “lower doubling time”. In addition, the cell viability entry (albumin 0.1 g/L versus 1 g/L, subculture to 10 passages, FIG. 2d) is recorded as “higher cell viability”. For the same substance, where the note is “low versus high albumin concentration condition, FIG. 2c”, the “accumulated cell numbers over time” value is “higher”.
